Test results as given in ChEMBL document CHEMBL6153173, “Discovery, Synthesis, and Activity Evaluation of Novel Small-Molecule Inhibitors Targeting VISTA for Cancer Immunotherapy” (J Med Chem, 2025).

Experiments:
HepG2 [1] = assay: Cytotoxicity against human HepG2 cells assessed as cell viability at 10 uM measured after 24 hrs by CCK-8 assay; type: functional, cell-based
Mus musculus = assay: Induction of antitumor immune response in BALB/c mouse allografted with mouse CT-26 cells assessed as increase in infiltration of CD8 positive cells in tumor tissue at 30 to 120 mg/kg, po once daily for 14 consecutive doses by immunohistochemical analysis; type: functional, organism-based; conditions: CT26, dose 30-120 mg/kg, time 14.0 day
CT26 [2] = assay: Cytotoxicity against mouse CT-26 cells assessed as cell viability at 10 uM measured after 24 hrs by CCK-8 assay; type: functional, cell-based
CT26 [3] = assay: Antitumor activity against mouse CT26 cells allografted in BALB/c mouse assessed as tumor volume inhibition rate at 60 mg/kg, po once daily for 14 consecutive doses; type: functional, organism-based; conditions: time 14.0 day
HepG2 [4] = assay: Induction of autophagy-dependent degradation of VISTA in human HepG2 cells measured after 24 hrs by Western blot analysis; type: cell-based; conditions: dose 1.25-5 µM
CT26 [5] = assay: Antitumor activity against mouse CT26 cells allografted in BALB/c mouse assessed as tumor shrinkage at 30 to 120 mg/kg, po once daily for 14 consecutive doses by hematoxylin and eosin (H and E) staining based assay; type: functional, organism-based; conditions: dose 30-120 mg/kg, time 14.0 day
HepG2 [6] = assay: Cytotoxicity against human HepG2 cells assessed as cell viability at 20 uM measured after 24 hrs by CCK-8 assay; type: functional, cell-based
CT26 [7] = assay: Antitumor activity against mouse CT26 cells allografted in BALB/c mouse assessed as growth delay at 30 to 120 mg/kg, po once daily for 14 consecutive doses by hematoxylin and eosin (H and E) staining based assay; type: functional, organism-based; conditions: dose 30-120 mg/kg, time 14.0 day
HepG2 [8] = assay: Induction of autophagy-dependent degradation of VISTA in human HepG2 cells at 5 uM measured after 24 hrs by Western blot analysis relative to control; type: cell-based
CT26 [9] = assay: Cytotoxicity against mouse CT-26 cells assessed as cell viability at 20 uM measured after 24 hrs by CCK-8 assay; type: functional, cell-based
[10] = target: T1, V-type immunoglobulin domain-containing suppressor of T-cell activation (Homo sapiens) (UniProt Q9H7M9); assay: Inhibition of VISTA protein in human Jurkat cells assessed as rescue of VISTA Fc protein suppressed IL-2 release by measuring increase in IL-2 by ELISA based assay; type: cell-based; conditions: dose 0.3125-5 µM
T1 sequence (whole entry): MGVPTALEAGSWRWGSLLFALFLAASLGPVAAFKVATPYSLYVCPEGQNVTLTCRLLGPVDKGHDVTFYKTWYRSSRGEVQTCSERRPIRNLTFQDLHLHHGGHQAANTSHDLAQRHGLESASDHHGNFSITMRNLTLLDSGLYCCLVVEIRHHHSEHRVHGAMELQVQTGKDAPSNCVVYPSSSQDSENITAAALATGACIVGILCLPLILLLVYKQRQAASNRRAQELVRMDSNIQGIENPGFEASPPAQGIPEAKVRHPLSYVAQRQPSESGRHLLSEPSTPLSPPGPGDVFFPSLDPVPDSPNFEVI

CT26 [11] = assay: Antitumor activity against mouse CT26 cells allografted in BALB/c mouse assessed as inhibition of tumor growth by visual examination at 30 to 120 mg/kg, po once daily for 14 consecutive doses; type: functional, organism-based; conditions: dose 30-120 mg/kg, time 14.0 day

Compound | Activity (HepG2 [1]) | Activity (Mus musculus) | Activity (CT26 [2]) | Activity (CT26 [3]) | Activity (HepG2 [4]) | Activity (CT26 [5]) | Activity (HepG2 [6]) | Activity (CT26 [7]) | Activity (HepG2 [8]) | Activity (CT26 [9]) | inhibition [10] | Activity (CT26 [11])
Cc1c(-c2ccc(F)cc2)ccc2nc(-c3cccc(CNCCN(C)C)c3)[nH]c12 | Active | Active | Active | Active | Dose-dependent-effect | Active | Active | Active | 77% | Active | Dose-dependent-effect | Active
Cc1c(-c2ccccc2)ccc2nc(-c3cccc(CNCCO)c3)[nH]c12 | – | – | – | – | – | – | – | – | 50% | – | – | –

The source made the active and inactive calls. The rule behind the calls is not given here.
